From patent publication US11420959B2, “DACOS type NNRTIS amino acid ester derivative, preparation method thereof, pharmaceutical composition, and application thereof” (YUNNAN UNIVERSITY, priority 2018, dated 2022)

System: HIV-1IIIB
Test: Syncytium inhibition experiment, C8166 cells infected with HIV-1IIIB
Format: cell-based
Details: Human immunodeficiency virus 1, 72 h, syncytium count, three days
Protocol: C8166 cells infected with HIV-1 were used for determining the anti-HIV biological activity at the cellular level. The specific method was described below.
Syncytium inhibition experiment: 100 μL of C8166 cell suspension (4×10^5/mL) was inoculated into each well of a 96-well cell culture plate containing 5-fold serial dilutions of the compounds, followed by addition of HIV-1IIIB diluted supernatant (MOI=0.04). Three replicate wells were set for each serial concentration. […] The cells were incubated at 37° C. in a 5% CO2 incubator for three days. The number of the syncytia was counted in five non-overlapping fields of view by using an inverted microscope (100×). […] Calculation formula: cytopathic inhibition rate (%)=(1−number of syncytia in experimental wells/number of syncytia in control well)×100%.

- EC50: 49 nM
Compound: Cc1cn([C@H]2C[C@H](N=[N+]=[N-])[C@@H](CO)O2)c(=O)[nH]c1=O [AZT, Zidovudine, reference compound]
